Measurements published in PubChem BioAssay AID1155 (ChemBank, 2008).
Only a part is listed here, and it is no random draw. The source made the active and inactive calls.

Assay: PSAC antagonists in infected red cells, primary screen, cell-based, P. falciparum Indochina, OD700, 2 h (AID 1155);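 note: lysis reports solute entry through the parasite surface anion channel PSAC; channel blockers reduce lysis of infected cells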
Settings: P. falciparum Indochina infected erythrocytes, osmotic lysis OD700; higher = more signal, called active from +8 up or from −8 down

Row | Structure (SMILES) | z-score
1 | O=P(/N=C1/CC(CCCO)=CC(C2CC2)N1Cc1cc2c(cc1Br)OCO2)(Oc1ccccc1)Oc1ccccc1 (stereo not given) | inactive: 0.716
2 | COP(=O)(/N=C1/CC(CCCO)=CC(C2CC2)N1Cc1cccc(OC(F)(F)F)c1)OC (stereo not given) | inactive: 0.0648
3 | CN1/C(=N\P(=O)(Oc2ccccc2)Oc2ccccc2)CC(CCCO)=CC1c1cccs1 (stereo not given) | inactive: 0.106
4 | COP(=O)(/N=C1/CC(CCCO)=CC(C2CC2)N1Cc1cc2c(cc1Br)OCO2)OC (stereo not given) | inactive: 0.0673
5 | O=P(/N=C1/CC(CCCO)=CC(C2CC2)N1Cc1cccc(OC(F)(F)F)c1)(Oc1ccccc1)Oc1ccccc1 (stereo not given) | inactive: 0.807
6 | CN1/C(=N\P(=O)(Oc2ccccc2)Oc2ccccc2)CC(c2ccc(CO)cc2)=CC1C1CC1 (stereo not given) | inactive: -0.416
7 | O=P(/N=C1/CC(CCCO)=CC(c2cccs2)N1Cc1cccc(OC(F)(F)F)c1)(Oc1ccccc1)Oc1ccccc1 (stereo not given) | inactive: 1.3
8 | CC1C=C(CCCO)C/C(=N/P(=O)(Oc2ccccc2)Oc2ccccc2)N1Cc1cccc(OC(F)(F)F)c1 (stereo not given) | inactive: 0.452
9 | O=P(/N=C1/CC(CCCO)=CC(c2ccc(CN3CCCC3)cc2)N1Cc1cc2c(cc1Br)OCO2)(Oc1ccccc1)Oc1ccccc1 (stereo not given) | inactive: 0.323
10 | COP(=O)(/N=C1/CC(CCCO)=CC(c2ccc(CN3CCCC3)cc2)N1Cc1cc2c(cc1Br)OCO2)OC (stereo not given) | inactive: -0.508
11 | CN1/C(=N\P(=O)(Oc2ccccc2)Oc2ccccc2)CC(CCCO)=CC1c1ccc(CN2CCCC2)cc1 (stereo not given) | inactive: 0.464
12 | COP(=O)(/N=C1/CC(c2ccc(CO)cc2)=CC(c2cccs2)N1C)OC (stereo not given) | inactive: 0.546
13 | O=P(/N=C1/CC(c2ccc(CO)cc2)=CC(c2cccs2)N1Cc1cccc(OC(F)(F)F)c1)(Oc1ccccc1)Oc1ccccc1 (stereo not given) | inactive: 0.548
14 | O=P(/N=C1/CC(c2ccc(CO)cc2)=CC(C2CC2)N1Cc1cc2c(cc1Br)OCO2)(Oc1ccccc1)Oc1ccccc1 (stereo not given) | inactive: 0.982
15 | COP(=O)(/N=C1/CC(c2ccc(CO)cc2)=CC(C2CC2)N1Cc1sc2ccccc2c1Cl)OC (stereo not given) | inactive: 1.07
16 | CN1/C(=N\P(=O)(Oc2ccccc2)Oc2ccccc2)CC(c2ccc(CO)cc2)=CC1c1cccs1 (stereo not given) | inactive: -0.591
17 | COP(=O)(/N=C1/CC(CCCO)=CC(c2ccc(CN3CCCC3)cc2)N1Cc1cccc(OC(F)(F)F)c1)OC (stereo not given) | inactive: 0.414
18 | O=P(/N=C1/CC(CCCO)=CC(c2cccs2)N1Cc1cc2c(cc1Br)OCO2)(Oc1ccccc1)Oc1ccccc1 (stereo not given) | inactive: 0.814
19 | COP(=O)(/N=C1/CC(CCCO)=CC(c2ccc(CN3CCCC3)cc2)N1C)OC (stereo not given) | inactive: -0.509
20 | COP(=O)(/N=C1/CC(CCCO)=CC(C2CC2)N1C)OC (stereo not given) | inactive: -1.92
21 | COP(=O)(/N=C1/CC(CCCO)=CC(c2cccs2)N1C)OC (stereo not given) | inactive: -1.17
22 | COP(=O)(/N=C1/CC(c2ccc(CO)cc2)=CC(C2CC2)N1C)OC (stereo not given) | inactive: -0.723
23 | COP(=O)(/N=C1/CC(CCCO)=CC(C2CC2)N1Cc1sc2ccccc2c1Cl)OC (stereo not given) | inactive: 1.86
24 | COP(=O)(/N=C1/CC(CCCO)=CC(C)N1Cc1cccc(OC(F)(F)F)c1)OC (stereo not given) | inactive: -0.558
25 | COP(=O)(/N=C1/CC(CCCO)=CC(c2ccc(CN3CCCC3)cc2)N1Cc1sc2ccccc2c1Cl)OC (stereo not given) | inactive: 1.17
26 | O=P(/N=C1/CC(CCCO)=CC(C2CC2)N1Cc1sc2ccccc2c1Cl)(Oc1ccccc1)Oc1ccccc1 (stereo not given) | inactive: 1.24
27 | COP(=O)(/N=C1/CC(c2ccc(CO)cc2)=CC(C2CC2)N1Cc1cc2c(cc1Br)OCO2)OC (stereo not given) | inactive: 0.459
28 | O=P(/N=C1/CC(CCCO)=CC(c2ccc(CN3CCCC3)cc2)N1Cc1sc2ccccc2c1Cl)(Oc1ccccc1)Oc1ccccc1 (stereo not given) | inactive: 0.582
29 | CN1/C(=N\P(=O)(Oc2ccccc2)Oc2ccccc2)CC(CCCO)=CC1C1CC1 (stereo not given) | inactive: -1.52
30 | O=P(/N=C1/CC(c2ccc(CO)cc2)=CC(C2CC2)N1Cc1sc2ccccc2c1Cl)(Oc1ccccc1)Oc1ccccc1 (stereo not given) | inactive: 2
